Binding of CDR-mutated scFvs to a peptide of the spike HR2 region

Antigen: PDVDLGDISGINAS, a 14-residue peptide of the SARS-CoV-2 spike HR2 region.

Parent scFv Ab-14: VH joined to VL by a 15-residue (Gly4Ser)3 linker. Changes lie in the light chain CDRs alone.
VH: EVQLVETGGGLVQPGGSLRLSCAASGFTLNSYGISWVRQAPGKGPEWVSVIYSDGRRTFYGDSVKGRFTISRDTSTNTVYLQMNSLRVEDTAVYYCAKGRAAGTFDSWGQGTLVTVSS
VL: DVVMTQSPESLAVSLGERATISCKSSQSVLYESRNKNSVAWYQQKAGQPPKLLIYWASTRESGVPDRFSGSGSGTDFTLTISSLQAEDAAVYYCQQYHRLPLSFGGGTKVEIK

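This is the validation round: designs drawn from the data on random variants, tested in the same kind of assay. Group labels follow the data file (Ctrl: baseline library sampled from a position-specific scoring matrix, with some repeated check sequences; En: ensemble of fine-tuned language models; GP: Gaussian process model; GPLM: also part of the Gaussian process libraries; HC: hill climbing; Gen: genetic algorithm; Gibbs: Gibbs sampling; a sequence that several methods proposed may carry one label only). In AlphaSeq, yeast of one mating type display the scFv and yeast of the other type display the target. The frequency of each diploid, read from paired DNA barcodes, reflects how well the two displayed proteins bind. Each replicate has its own calibration line, from reference interactions of the BCL2 family. There are six technical replicates.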

Each variant is given by its three light chain CDRs, as the data file delimits them; those of the parent are KSSQSVLYESRNKNSVA, WASTRES, QQYHRLPLS.
The Kd shown is the geometric mean over detected replicates; a lower Kd is a better binder.
An entry "nd" has no value in the source: the pair was not observed among the diploids in any replicate. This suggests poor binding but is not conclusive.
Of ten entries with the parent sequence, four were seen in most replicates (averages 2.2 nM to 240 nM), three in one and three in none, so single entries are noisy.
The authors' rule: three or more of the six replicates give a measured affinity, fewer mean a poor binder.
Nonspecific signal, from three strains lacking the peptide, appeared in 4% of pairings of all light chain designs, centred on 430 nM (5% of these signals below 38 nM); values are not corrected for it.
Values of this round are not directly comparable with the first-round values of the same sequences.

| Kd (apparent) | replicates with signal | CDR-L1 | CDR-L2 | CDR-L3 | group |
|---|---|---|---|---|---|
| 770 pM | 6 of 6 | KIEQSMLYESRNVNSVA | NASTREV | QQYHRLPLS | GP_Gibbs |
| 63 nM | 4 of 6 | MVSQLMLWGHLAKNSIA | EAEHRCN | QQYDRLPLI | En_Gen |
| 85 nM | 6 of 6 | YLSQSVQYESRNKNSVA | NASTREY | QQYHRLPLM | GP_Gibbs |
| 830 pM | 6 of 6 | KFSQVQLYESRNKNSVA | GASTRES | QQYHRLPLS | GP_HC |
| 4.2 nM | 6 of 6 | KLVNFMNRGTHHTSNIA | DAVNRLD | QQYYRLPLA | En_Gen |
| 1.9 nM | 6 of 6 | KWQEGWLYESRNKNSVA | EGSTRES | QQYHRLPLS | GP_Gibbs |
| 1.5 nM | 6 of 6 | KSSQSVLYESQNKNSVA | NASTRMS | QQYHRLPLS | GP_HC |
| 5.3 nM | 6 of 6 | KLRQSTLYESRNKNAVA | WASTRES | QQYHRLPLS | GP_HC |
| 520 pM | 6 of 6 | KVSQAFLNESRNKNSVA | DANTRES | QQYHRLPLS | GP_HC |
| 17 nM | 5 of 6 | MMSQVTGSGTRHRNNVA | QTSMREP | QQYDRLPLV | En_Gen |
| 730 pM | 6 of 6 | KVSISNLLESRNKNSVA | EASTRES | QQYHRLPLS | GP_HC |
| 1.4 nM | 6 of 6 | KGQQSQLYESQNWNSVA | NASKRES | QQYHRLPLS | GP_Gibbs |
| nd | 0 of 6 | KSSQSVLGESRNKNSVA | WASTREY | QQKHRLPLS | Ctrl |
| 550 pM | 6 of 6 | KSSQSWLYESRNKNSVA | GASQREV | QQYHRLPLS | GP_HC |
| 26 nM | 6 of 6 | NLRMKELGMSYNANNVA | DSENRIK | QQYYRLPLM | En_Gibbs |
| 9.9 nM | 6 of 6 | KSSMSELYESRNKPSVA | SASTRES | QQYHRLPLS | Ctrl |
| 17 nM | 6 of 6 | KSSQSVLYESDNKNSVA | WATTRES | QQYHRLPLS | Ctrl |
| 8.7 nM | 6 of 6 | HLSANMWMESSQWDAVA | QGDIAMN | QQYSRLPLS | En_Gibbs |
| 5.5 nM | 6 of 6 | IAMQSWLYESRNKNSVA | GASTRES | QQYHRLPLI | GP_HC |
| 3.7 nM | 6 of 6 | KQQISVEQESRQKNSVA | NASTRCE | QQYHRLPLS | GP_Gibbs |
| 46 nM | 3 of 6 | MVSQLMLWGLHAKYSIA | EAQTRLN | QQYDRLPLI | En_Gen |
| 940 pM | 6 of 6 | SLYEAMQMGGLHTSNIA | DANQQMR | QHYNRLPLA | En_Gibbs |
| 36 nM | 6 of 6 | SLTAHVEEAKRAENSVA | EAVMLES | QQYHQLPLM | En_Gibbs |
| 700 nM | 1 of 6 | QSSQSVLDESRNKNSVA | WASTRES | QQYHYLPLS | Ctrl |
| 3.5 nM | 6 of 6 | KVYWSVDYEDRNKNSVA | HASVRES | QQYHRLPLS | GP_Gibbs |
| 9.2 nM | 6 of 6 | HIQEVDHQVENKYGNVA | DASEYVA | QQYFQLPIS | En_Gibbs |
| 4.4 nM | 6 of 6 | KLSQSVMYESRMKNSVA | NASTRMS | QQYHRLPLS | GP_Gen |
| 430 nM | 5 of 6 | KSSQSVLYESRNKNSVA | YDSTREQ | QQYHHLPLS | Ctrl |
| 3.0 nM | 6 of 6 | KSMQSMEYESRNKNSVA | EASTREL | QQYHRLPLS | GP_Gibbs |
| 1.1 nM | 6 of 6 | KSGQGVLYESRNKNSVA | GASTRET | QQYHRLPLS | GPLM_HC |
| nd | 0 of 6 | IVSQLMLWGMKAKNSIA | EAELRLN | QQYDRLPLF | En_Gen |
| 77 nM | 5 of 6 | KLDLTNGEMDKKGQNIA | EASTAGT | QSYWRLPLS | En_Gibbs |
| 340 pM | 6 of 6 | KQSQEKPYESRNKNSVA | DASTRES | QQYHRLPLS | GP_HC |
| 1.9 nM | 6 of 6 | KLPQSQGYESRNKNSVA | NASTRES | QQYHRLPLS | GP_Gen |
| 29 nM | 6 of 6 | SMAYFQGGYNQQEKAIA | ESATREQ | QQYFRLPLT | En_Gibbs |
| 2.0 nM | 6 of 6 | KSSGSVLYESRNKNSVA | NASTRCS | QQYHRLPLS | Ctrl |
| 2.1 nM | 6 of 6 | KFDQSWLYESRNKNNVA | HASQRCS | QQYHRLPLS | GP_Gibbs |
| 6.8 nM | 6 of 6 | HLSQSELYESRNKNSVA | NASTRCS | QQYHRLPLS | GP_Gen |
| 5.7 nM | 6 of 6 | MVYQATMMGTSTRNSIA | NATMRPD | QQYHRLPLI | En_Gen |
| 220 pM | 6 of 6 | KSAQSVLYESRNKNSVA | AADTREN | QQYHRLPLS | Ctrl |
| 540 pM | 6 of 6 | KLSGSVLPESRNKNSVA | SATTRMS | QQYHRLPLS | GP_Gibbs |
| nd | 0 of 6 | KISQMSTIESIIHNSVA | QTSTRES | QQYDRLPLS | En_HC |
| 16 nM | 6 of 6 | KLRQSTKYESRNQNSVA | MASTRES | QQYHRLPLS | GP_HC |
| 4.2 nM | 6 of 6 | SMEWEEWNGQSKKHNIA | ADTKVLE | QQYFRLPFT | En_Gibbs |
| 10 nM | 6 of 6 | HMSALTMMGMRQRNSVA | QMTTREN | QQYDRLPLV | En_Gen |

6 of these entries, quoted again:

| CDR-L1 | CDR-L2 | CDR-L3 | group | Kd (apparent) | replicates with signal |
|---|---|---|---|---|---|
| KSSQSVLYESQNKNSVA | NASTRMS | QQYHRLPLS | GP_HC | 1.5 nM | 6 of 6 |
| KVSQAFLNESRNKNSVA | DANTRES | QQYHRLPLS | GP_HC | 520 pM | 6 of 6 |
| SLYEAMQMGGLHTSNIA | DANQQMR | QHYNRLPLA | En_Gibbs | 940 pM | 6 of 6 |
| KSGQGVLYESRNKNSVA | GASTRET | QQYHRLPLS | GPLM_HC | 1.1 nM | 6 of 6 |
| KSSQSVLYESDNKNSVA | WATTRES | QQYHRLPLS | Ctrl | 17 nM | 6 of 6 |
| MVSQLMLWGLHAKYSIA | EAQTRLN | QQYDRLPLI | En_Gen | 46 nM | 3 of 6 |

Values reported by Li et al. 2023, doi:10.1038/s41467-023-39022-2 (FLAb copy).